Key:
[1] = system: SNB75 cells; experiment: In vitro viability assay (Alamar blue), SNB75; assay type: cell-based, human; details: read-out: EC50 of SMC therapy, with low dose of VSVΔ51 (0.1 MOI)
[2] = system: cancer cell lines; experiment: In vitro viability assay (Alamar blue), cancer cell lines; assay type: cell-based; details: 5 μM monovalent SMCs, VSVΔ51 at differing MOIs
[3] = system: EMT6 mammary tumors; experiment: EMT6 mammary tumor model; assay type: in vivo, mouse; details: compared to isotype matched antibody controls

Compound: CN[C@@H](C)C(=O)N[C@H](C(=O)N1CCC[C@H]1c1nc(C(=O)c2ccc(F)cc2)cs1)C1CCCCC1 [LCL161]
- EC50 [1]: 21.9 nM
- synergy with VSVΔ51 to cause cancer cell death [2]: synergize
- effect of TNFα neutralizing antibodies on SMC and VSVΔ51 efficacy [3]: reverted the tumor regression

— patent US20210322545A1 (priority 2016, published 2021)
